# Measured affinities in a library of Ab-91 heavy chain variants

Values reported by Engelhart et al. 2022, doi:10.1038/s41597-022-01779-4 (FLAb copy).

Antigen: PDVDLGDISGINAS, a 14-residue peptide of the SARS-CoV-2 spike HR2 region.

The variants keep the light chain, the linker and the frameworks of Ab-91 (scFv order VL, three GGGGS repeats, VH).
VL: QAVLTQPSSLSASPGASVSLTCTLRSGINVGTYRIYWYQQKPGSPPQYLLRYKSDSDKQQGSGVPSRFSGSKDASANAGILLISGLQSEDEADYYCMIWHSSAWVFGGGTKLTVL
VH: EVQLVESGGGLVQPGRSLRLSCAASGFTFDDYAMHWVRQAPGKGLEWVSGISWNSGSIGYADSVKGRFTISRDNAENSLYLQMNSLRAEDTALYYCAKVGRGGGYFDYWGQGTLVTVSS

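Variants in AAYL51 differ from the parent at up to three CDR positions; double and triple changes were sampled at random. Affinity was read by AlphaSeq, a pooled yeast mating assay with surface-displayed partners. Pairs that bind mate more often; barcode pairs of the diploids are counted by sequencing. Each replicate has its own calibration line, from reference interactions of the BCL2 family. Mating was done three times.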

The parent's heavy chain CDRs are GFTFDDYAMH, GISWNSGSIGYADSVK, VGRGGGYFDY; each variant's own CDRs replace them letter for letter.
All variants listed here change R101 of the VH, counted from its first residue.
Each Kd is an estimate from the mating assay, the geometric mean of the replicates in which the pair was seen; lower is stronger.
"not detected" marks a missing value. The strain was present, yet no cells mated with the target were sequenced in any replicate, which points to weak or no binding.
Background: pairings of library AAYL51 with three empty control strains gave a value in 21% of cases (median 34 µM, 5th percentile 1.8 µM). Values in that range, when seen in few replicates, are hard to tell from nonspecific mating. For each scFv, signals with the empty controls are counted beside the result.
For reference, the parent read 72 nM as the reference entry and 7.5 nM as a member of this library.

CDR-H1,CDR-H2,CDR-H3,Kd,detected,control signals
GFTFDDYAMH,GNSWNSGSIGYADSGK,VGYGGGYFDY,not detected,0/3,1/9
GFTFDDYAMH,GISWNSGSIGDADSVK,VGNYGGYFDY,190 µM,2/3,4/9
GMTFDDYAMH,GISWNSGSIGYADSVK,DGLGGGYFDY,5.8 µM,2/3,2/9
GFTFWDYAMH,GISWNSGSIGYADSVK,VGTGGGYFFY,not detected,0/3,0/9
GFTFDDYAMH,GISWNSGSIGYATSVK,VGSGGGGFDY,not detected,0/3,1/9
GFTFDDYGMH,GISWNSGLIGYADSVK,VGHGGGYFDY,10 nM,3/3,0/9
GFTFDDYAMH,GISWNSGSIGYAPSVK,VGQHGGYFDY,22 nM,3/3,0/9
GFTFLDYAMH,GISWNSGSIGYADSVK,VGKGGGYFDY,100 nM,3/3,1/9
EFTFDDYAMH,GISWNSGSIIYADSVK,VGAGGGYFDY,not detected,0/3,0/9
GFTFYDYAMH,GISWNSGSIGYADSVK,VGCGTGYFDY,80 µM,2/3,5/9
GFTFDDYAFH,GILWNSGSIGYADSVK,VGYGGGYFDY,22 µM,1/3,0/9
GFTFDDYAMH,GISWNSGSGGYADSVK,VGPGGGYFDY,1.8 µM,1/3,1/9
GFGFDDYKMH,GISWNSGSIGYADSVK,VGDGGGYFDY,760 nM,1/3,1/9
GFTFDDYAMH,GISWNSGSIGYADSVK,VGLYGGYFDY,26 nM,3/3,0/9
GFQFDRYAMH,GISWNSGSIGYADSVK,VGQGGGYFDY,3.0 nM,3/3,8/9
PFTFDDYAMH,GISWNSGSIGMADSVK,VGQGGGYFDY,not detected,0/3,0/9
GFTFDDYAKH,GISGNSGSIGYADSVK,VGGGGGYFDY,not detected,0/3,0/9
GFTFDDYAMH,GISWNSGSIGYADSDK,VGYGLGYFDY,250 µM,2/3,7/9
GFTFDDYALH,GISWNSGSIGYADSVK,VGIGGGYEDY,670 nM,3/3,0/9
GSTFDDYAMH,GISWNSGSIGYADSVK,VGQGCGYFDY,not detected,0/3,1/9
GFTFDDYAMH,FISWNSGSIGYADSVN,VGLGGGYFDY,not detected,0/3,0/9
GFTFDDYAMH,GISWNQGSIGYWDSVK,VGFGGGYFDY,23 µM,1/3,0/9
GFTFDDYAMH,GISWNSGSIGPADSVK,VGSCGGYFDY,6.6 µM,1/3,4/9
GFTFDDYAMH,GISTNSGSIGYADSVK,VIIGGGYFDY,13 µM,2/3,1/9
GFTFDDYAMH,GISWNSGSIYYADSVK,VGCWGGYFDY,not detected,0/3,2/9
GFRFDDYAMH,GISWNSGSISYADSVK,VGFGGGYFDY,150 µM,3/3,4/9
GFTYDDYAMH,GISWNSGSIGYADSVK,VGYGGGYFDY,160 nM,1/3,0/9
GFTFTDYAMA,GISWNSGSIGYADSVK,VGPGGGYFDY,89 µM,3/3,4/9
GKTFDDTAMH,GISWNSGSIGYADSVK,VGHGGGYFDY,not detected,0/3,0/9
GFRFDDYAMH,GISINSGSIGYADSVK,VGPGGGYFDY,12 µM,1/3,1/9
GFTFDDPAMH,GISWNSGVIGYADSVK,VGHGGGYFDY,75 µM,1/3,5/9
GFTFDDYAMH,GISWNSGSIAYADSVK,VMMGGGYFDY,5.8 µM,3/3,3/9
IFTFDDSAMH,GISWNSGSIGYADSVK,VGLGGGYFDY,110 µM,2/3,1/9
GFTFDDYAMH,GISWNSGSLGYADSVK,VGKVGGYFDY,160 nM,3/3,2/9
GETNDDYAMH,GISWNSGSIGYADSVK,VGNGGGYFDY,not detected,0/3,0/9
GFTFDDYAMH,GISWNSWSIGYADSVK,VGDGGGYGDY,70 µM,3/3,6/9
GFTFDDYAMH,GISWNSGSIGYWDSVK,MGGGGGYFDY,300 µM,3/3,9/9
GFTFDDYAMH,GISWNSGSIGYADSVK,VGHGGGYFDY,180 nM,3/3,0/9
GFTFDDYAMH,GISWNSGSIGYCDSVK,VGSGAGYFDY,not detected,0/3,0/9
GFTFVDYAMH,GISWNSGSIGYADSVK,VGEGGGYFDY,not detected,0/3,0/9
GFTFDDYAMH,GISWNSGSIGYADSVK,VGSFGGYFDY,2.8 µM,2/3,3/9
GFTFDDMAMH,GISWNSGSIGYADSVK,VGPGGGYFDY,330 nM,3/3,1/9
GFTFADYAVH,GISWNSGSIGYADSVK,VGTGGGYFDY,170 nM,3/3,2/9
GFTFDTYAMH,GISWNSGSIGYAYSVK,VGNGGGYFDY,470 nM,3/3,3/9
GFTFDDYAMH,PISWNSGSIGYADSVK,VGLGGGYFDG,not detected,0/3,2/9
GFTFDDQAMH,GISWNSGSIGYADSVK,VGKLGGYFDY,not detected,0/3,1/9
GFTFDDYAMH,GISWNSGSIGYADSVW,VGPGGGSFDY,not detected,0/3,0/9
GFTFDDYAMH,GISWNSGSIHMADSVK,VGQGGGYFDY,290 µM,1/3,0/9
GFTFDDYAMH,GISWNIGSIGYADSVK,VQIGGGYFDY,not detected,0/3,0/9
GFTFDDYWMH,GISWNSGSIGYADSVK,VGGGGGYFDW,not detected,0/3,5/9
GFTCDDYAMH,GISWNSGSIGYADSVK,VGHGDGYFDY,not detected,0/3,2/9
GFTFDDYAEH,GISWNSGSIGYAYSVK,VGVGGGYFDY,not detected,0/3,0/9
GFTFDDYAMH,GTSWNSGSIGYADSVK,VLKGGGYFDY,21 µM,2/3,4/9
GFTFDDYAMH,GLSWNSGSIGYADSVK,VGAIGGYFDY,not detected,0/3,3/9
GFTFDDYAMH,GISWNSGSIGIADSVK,VGAGGGYFDY,63 nM,3/3,1/9
GFTFDDYAMH,GISWNSGNIGYADSVK,VGCGGGYFDY,not detected,0/3,0/9
GFTFDDYAMH,GVSWNSGSIGYEDSVK,VGTGGGYFDY,not detected,0/3,0/9
GFTFDDYAMH,IISWNSGSIGYADSVQ,VGNGGGYFDY,not detected,0/3,0/9
GFTFDDYAWH,GISWNSGSIGYADSVK,VGNGGGYFDW,76 µM,1/3,2/9
LFYFDDYAMH,GISWNSGSIGYADSVK,VGEGGGYFDY,not detected,0/3,1/9
VFTFDDYAMH,GISWNSGSIGYADSVK,VGEGFGYFDY,69 µM,1/3,0/9
GFTFDDYAMH,IISWNSGSIGYADSVK,VGHGGGPFDY,not detected,0/3,0/9
GFTFDDYAMH,GISWNSGSIGYYDSDK,VGKGGGYFDY,39 µM,2/3,2/9
GFTFDDYAMH,GISWNSGSIGYADSVK,VGAGGWYFKY,not detected,0/3,2/9
GFTQDLYAMH,GISWNSGSIGYADSVK,VGYGGGYFDY,not detected,0/3,0/9
GFTFDDYMPH,GISWNSGSIGYADSVK,VGHGGGYFDY,95 µM,3/3,5/9
GFTFDDYAMH,GISWNSGSIGYARSVK,VGIGGGAFDY,not detected,0/3,0/9
GFTFDDLAMH,GISWNSGSIGYADSVK,VGEGGGYFMY,not detected,0/3,1/9
GFTFTDYAMH,GISWNSGSIGYADSVK,VGNDGGYFDY,not detected,0/3,0/9
GFTFDDYAMH,GISWNSGSIGYADSQK,VGFFGGYFDY,not detected,0/3,0/9
GFTFDDYAMH,GISWASGSIGYVDSVK,VGKGGGYFDY,210 µM,1/3,1/9
GFTFDDYPMH,GISWNSGSIGYAWSVK,VGVGGGYFDY,not detected,0/3,0/9
GFTFDDYAMH,GISWNSGSINYAKSVK,VGTGGGYFDY,19 µM,2/3,2/9
GFTFDDYAMG,GISWNSGSIGYADSVK,KGGGGGYFDY,not detected,0/3,0/9
GFTFDMYAMH,GISWNSGSIGYADSVK,VGHFGGYFDY,280 nM,3/3,0/9
GFTFDDYAMH,GISWNSGSIGYADSVK,VGFGGTCFDY,8.3 nM,3/3,3/9
GFTFDDYAMH,GISWNSGSIEYADSVK,VGWGGGYLDY,1.8 µM,1/3,0/9
GFTFWDYAMH,GPSWNSGSIGYADSVK,VGKGGGYFDY,not detected,0/3,1/9
LFTFDDYAMH,GISWNSGSIGYRDSVK,VGTGGGYFDY,320 µM,2/3,2/9

From the list, the first 12 with no signal in any replicate:

CDR-H1,CDR-H2,CDR-H3,Kd,detected,control signals
GFTFDDYAMH,GNSWNSGSIGYADSGK,VGYGGGYFDY,not detected,0/3,1/9
GFTFWDYAMH,GISWNSGSIGYADSVK,VGTGGGYFFY,not detected,0/3,0/9
GFTFDDYAMH,GISWNSGSIGYATSVK,VGSGGGGFDY,not detected,0/3,1/9
EFTFDDYAMH,GISWNSGSIIYADSVK,VGAGGGYFDY,not detected,0/3,0/9
PFTFDDYAMH,GISWNSGSIGMADSVK,VGQGGGYFDY,not detected,0/3,0/9
GFTFDDYAKH,GISGNSGSIGYADSVK,VGGGGGYFDY,not detected,0/3,0/9
GSTFDDYAMH,GISWNSGSIGYADSVK,VGQGCGYFDY,not detected,0/3,1/9
GFTFDDYAMH,FISWNSGSIGYADSVN,VGLGGGYFDY,not detected,0/3,0/9
GFTFDDYAMH,GISWNSGSIYYADSVK,VGCWGGYFDY,not detected,0/3,2/9
GKTFDDTAMH,GISWNSGSIGYADSVK,VGHGGGYFDY,not detected,0/3,0/9
GETNDDYAMH,GISWNSGSIGYADSVK,VGNGGGYFDY,not detected,0/3,0/9
GFTFDDYAMH,GISWNSGSIGYCDSVK,VGSGAGYFDY,not detected,0/3,0/9